Test results published in patent US9828379B2 (priority 2013, dated 2017).

Amino acid sequences for entries named in this document (tags omitted). A change or cut given only in a name is not applied to a line headed by its entry.
UniProt O08914, whole entry, looked up: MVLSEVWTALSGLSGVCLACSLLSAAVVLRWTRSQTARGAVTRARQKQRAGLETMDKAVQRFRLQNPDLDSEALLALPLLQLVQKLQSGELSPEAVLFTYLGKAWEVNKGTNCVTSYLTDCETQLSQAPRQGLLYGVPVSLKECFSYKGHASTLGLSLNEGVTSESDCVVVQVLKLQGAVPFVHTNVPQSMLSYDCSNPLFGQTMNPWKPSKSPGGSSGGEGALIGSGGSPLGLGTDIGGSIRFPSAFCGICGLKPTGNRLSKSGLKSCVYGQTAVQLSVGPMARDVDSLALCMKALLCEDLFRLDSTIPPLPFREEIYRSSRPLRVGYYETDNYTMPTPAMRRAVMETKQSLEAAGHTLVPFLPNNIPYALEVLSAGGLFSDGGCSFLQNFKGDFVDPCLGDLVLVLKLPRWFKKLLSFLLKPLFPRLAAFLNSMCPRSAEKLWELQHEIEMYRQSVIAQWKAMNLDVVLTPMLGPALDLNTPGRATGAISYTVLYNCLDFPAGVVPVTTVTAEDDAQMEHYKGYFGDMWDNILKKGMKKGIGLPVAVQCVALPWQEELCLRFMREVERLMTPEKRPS
UniProt O35678, whole entry, looked up: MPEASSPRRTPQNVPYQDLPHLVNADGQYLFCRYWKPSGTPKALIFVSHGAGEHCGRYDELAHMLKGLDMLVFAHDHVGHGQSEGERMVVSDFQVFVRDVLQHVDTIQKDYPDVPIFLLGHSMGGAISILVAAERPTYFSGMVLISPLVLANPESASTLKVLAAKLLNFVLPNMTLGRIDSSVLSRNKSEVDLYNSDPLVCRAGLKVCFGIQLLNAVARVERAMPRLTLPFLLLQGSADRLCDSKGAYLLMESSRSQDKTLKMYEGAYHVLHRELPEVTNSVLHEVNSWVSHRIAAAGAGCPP
UniProt Q8R2Y0: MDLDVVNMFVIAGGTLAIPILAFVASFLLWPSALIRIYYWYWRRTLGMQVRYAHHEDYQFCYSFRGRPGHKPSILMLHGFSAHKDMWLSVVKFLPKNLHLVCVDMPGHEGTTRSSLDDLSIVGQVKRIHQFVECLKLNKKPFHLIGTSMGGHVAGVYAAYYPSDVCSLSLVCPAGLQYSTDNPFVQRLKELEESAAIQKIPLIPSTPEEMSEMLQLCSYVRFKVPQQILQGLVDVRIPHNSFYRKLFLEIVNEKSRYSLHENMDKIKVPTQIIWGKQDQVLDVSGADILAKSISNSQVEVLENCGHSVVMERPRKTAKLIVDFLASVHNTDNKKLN

Experiments:
Test in all cases: In vitro competitive activity-based protein profiling (Table 1, mouse IC50)
Format in all cases: biochemical
FAAH = FAAH (Mus musculus, UniProt O08914); details: read-out: Mouse (IC50 value, nM) FAAH, in vitro competitive ABPP
MAGL = MAGL (Mus musculus, UniProt O35678); details: read-out: Mouse (IC50 value, nM) MAGL, in vitro competitive ABPP
ABHD6 = ABHD6 (Mus musculus, UniProt Q8R2Y0); details: read-out: Mouse (IC50 value, nM) ABHD6, in vitro competitive ABPP

## CCn1cc(CN2CC3CN(C(=O)OC(C(F)(F)F)C(F)(F)F)CC3C2)c(-c2ccc(N3CCOCC3)cc2)n1 (stereo not drawn) [Example 68, 1,1,1,3,3,3-Hexafluoropropan-2-yl 5-([1-ethyl-3-[4-(morpholin-4-yl)phenyl]-1H-pyrazol-4-yl]methyl)-octahydropyrrolo[3,4-c]pyrrole-2-carboxylate]
FAAH
  IC50: 1000 to 10000 nM
MAGL
  IC50: < 100 nM
ABHD6
  IC50: 1000 to 10000 nM
